Source: ChEMBL document CHEMBL1138948, “Design, synthesis, and evaluation of proline and pyrrolidine based melanocortin receptor agonists. A conformationally restricted dipeptide mimic approach” (J Med Chem, 2006)

By UniProt entry, the sequences of proteins in these tests, tags left out.
UniProt P32245, whole entry: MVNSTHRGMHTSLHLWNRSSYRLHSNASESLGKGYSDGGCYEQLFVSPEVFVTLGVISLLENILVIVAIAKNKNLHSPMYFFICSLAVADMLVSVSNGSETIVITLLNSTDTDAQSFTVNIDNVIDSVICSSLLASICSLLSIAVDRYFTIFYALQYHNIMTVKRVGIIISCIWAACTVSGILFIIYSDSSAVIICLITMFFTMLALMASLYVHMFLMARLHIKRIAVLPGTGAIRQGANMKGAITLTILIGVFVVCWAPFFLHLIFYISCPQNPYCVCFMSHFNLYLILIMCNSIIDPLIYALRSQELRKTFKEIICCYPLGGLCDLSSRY

Target: Melanocortin receptor 4 (Homo sapiens, UniProt P32245)
Test: Displacement of europium labeled NDP-alpha-MSH from human MC4R expressed in HEK293 cells
Format: cell-based

Question: How did the Ki turn out when `CC(=O)N[C@@H](Cc1c[nH]cn1)C(=O)N[C@@H](Cc1ccccc1)C(=O)N[C@@H](CCCN=C(N)N)C(=O)N[C@@H](Cc1c[nH]c2ccccc12)C(N)=O` was run?
Answer: The Ki was 246 nM.
